Molecular target: hPPARβ (Homo sapiens, UniProt Q03181)
Assay: Transient transfection assay in HepG2 cells, Gal4-hPPARβ chimeric receptor, luciferase reporter
Type: cell-based
Details: read-out: EC50β nM (Group); Hep G2-hBeta EC50, 24 hours incubation

Protein sequences, listed by entry. Tags and fused reporters are not part of them. Residues count along the entry.
UniProt Q03181, 171-441 limits assumed: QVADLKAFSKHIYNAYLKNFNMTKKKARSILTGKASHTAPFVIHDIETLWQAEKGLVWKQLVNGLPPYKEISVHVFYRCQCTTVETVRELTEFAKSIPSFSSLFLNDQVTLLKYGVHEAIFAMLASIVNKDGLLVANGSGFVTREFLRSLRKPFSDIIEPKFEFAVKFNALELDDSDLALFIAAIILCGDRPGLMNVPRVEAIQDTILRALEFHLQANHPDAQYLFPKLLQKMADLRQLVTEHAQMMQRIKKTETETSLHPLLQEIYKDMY

## Cc1cc(SCc2ccc(-c3ccc(C(F)(F)F)cc3)cc2)c(O)cc1OCC(=O)O
  EC50: < 300 nM

Reference: patent publication US6964983B2, “Compounds that modulate PPAR activity and methods for their preparation” (Warner-Lambert Company, LLC, priority 2002, dated 2005)
